By UniProt entry, the sequences of proteins in these tests, tags left out.
UniProt Q8C6L5, whole entry: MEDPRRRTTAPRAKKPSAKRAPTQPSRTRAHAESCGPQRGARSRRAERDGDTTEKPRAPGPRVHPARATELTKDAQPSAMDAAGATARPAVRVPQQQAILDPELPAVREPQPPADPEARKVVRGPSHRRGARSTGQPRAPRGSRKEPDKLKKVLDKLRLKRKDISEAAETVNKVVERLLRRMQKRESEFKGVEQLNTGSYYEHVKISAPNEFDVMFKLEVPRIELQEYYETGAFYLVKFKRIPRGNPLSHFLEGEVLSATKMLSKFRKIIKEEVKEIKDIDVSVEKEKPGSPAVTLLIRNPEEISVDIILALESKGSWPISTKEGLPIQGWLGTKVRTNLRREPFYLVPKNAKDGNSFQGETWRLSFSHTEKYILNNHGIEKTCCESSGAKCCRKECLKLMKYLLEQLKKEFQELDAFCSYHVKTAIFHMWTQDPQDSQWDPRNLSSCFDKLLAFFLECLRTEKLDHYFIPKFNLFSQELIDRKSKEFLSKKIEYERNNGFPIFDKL

The list shows a part of the results, in another mix than the full data. The source made the active and inactive calls. Rule as the data show it: active = inhibition above about 40%; inactive = the rest.
Each molecule was assayed against Cyclic GMP-AMP synthase (Mus musculus) (UniProt Q8C6L5) (assay: inhibition of Mus musculus cGAS, primary biochemical chemiluminescence screen (AID 1259399;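 also: 0% = negative control wells and 100% = reference inhibitor with no enzyme activity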)). Conditions: recombinant cGAS, Kinase-Glo ATP depletion luminescence; at 12.5 µM; active compounds read high.
With `CN(C)C1(CNC(=O)c2ccccn2)CCCCC1` the inhibition was inactive: -7.67%.
For `O=C(NCC1(N2CCCCC2)CCCCC1)c1cn2ccccc2n1`, the inhibition was inactive: -7.08%.
`O=C(N[C@@H]1CCCC[C@H]1N1CCOCC1)c1cccc(Br)c1` was tested, and the inhibition was inactive: -3.85%.
With `Cc1nc(N)ncc1C(=O)NCC1(N2CCCC2)CCCCC1` the inhibition was inactive: 0.0229%.
In the case of `CN(CC1(N2CCCCC2)CCCCC1)C(=O)c1cnc2c(c1)nnn2C`, the inhibition is reported as inactive: -4.38%.
In the case of `Cn1cc(C(=O)NCC2(N3CCCC3)CCCCC2)c(=O)[nH]c1=O`, the inhibition is reported as inactive: -8.3%.
In the case of `CCn1ccc(C(=O)N(C)CC2(N3CCCCC3)CCCCC2)cc1=O`, the inhibition is reported as inactive: -7.02%.
With `Cc1cccc(N(C(=O)c2ccco2)C2CCN(C(=O)OC(C)(C)C)CC2)c1` the inhibition was inactive: -13%.
In the case of `Cc1nc2ncc(C(=O)N(C)CC3(N4CCCCC4)CCCCC3)c(=O)n2[nH]1`, the inhibition is reported as inactive: 0.32%.
In the case of `O=c1[nH]c2ccccc2n1C1CCN(Cc2ccccn2)CC1`, the inhibition is reported as inactive: -3.62%.
For `N#Cc1ccc(C(=O)CBr)cc1`, the inhibition was inactive: -4.93%.
In the case of `COc1cccc(NC2CCN(Cc3ccncc3)CC2)c1`, the inhibition is reported as inactive: -4.14%.
In the case of `CC(C)(C)c1ncc(C(=O)NCC2(N3CCOCC3)CCCCC2)c(=O)[nH]1`, the inhibition is reported as inactive: -5.24%.
`Nc1cc(C(=O)NCC2(N3CCCC3)CCCCC2)[nH]n1` was tested, and the inhibition was inactive: -3.59%.

Source: PubChem BioAssay AID1259399 (Fisher Drug Discovery Resource Center, 2018)
